The test system of one series is mixed tumor types. To be noted: occasional; midday insulin dose withheld.
The test system of series [1] is cancer patients (lung, esophagus, liver, stomach). To be noted: gradually-increased doses; cited from earlier work.

For insulin, the hypoglycemia entry in the series with mixed tumor types is reported as “hypoglycemia”. Moreover, in series [1], the tolerability result is given as “generally well tolerated”.

These data come from US5840770A, “Method of killing tumor cells” (Hill Medical Corporation, priority 1997, dated 1998).
